Biological target: GLP-1 receptor on RIN-m5F rat insulinoma cells (Rat) (UniProt P32301)
Assay: cell-based or functional assay

Row | In vitro titer (%): cAMP EC50 in RIN-m5F cells, relative to exendin-4 | Substance
1 | 7.6% | HY exendin-4(Lys27)-PEG-Fc
2 | 13.2% | DA exendin-4(Lys27)-PEG-Fc
3 | 13.2% | Exendin-4(Lys27)-PEG-Fc
4 | 8.5% | CA exendin-4(Lys27)-PEG-Fc
5 | 2.6% | DM exendin-4(Lys27)-PEG-Fc
6 | < 0.2% | Exendin-4(N)-PEG-Fc
7 | 2% | DA exendin-4(Lys27)-PEG-albumin (from UniProt P02768)

From patent US20100105877A1
